Data from paper PMC5731819.

Chains of the proteins cited; added tags and fusions are not shown. Lines headed by an entry give the natural chain unless they say otherwise; changes in a name come on top.
UniProt P0A988: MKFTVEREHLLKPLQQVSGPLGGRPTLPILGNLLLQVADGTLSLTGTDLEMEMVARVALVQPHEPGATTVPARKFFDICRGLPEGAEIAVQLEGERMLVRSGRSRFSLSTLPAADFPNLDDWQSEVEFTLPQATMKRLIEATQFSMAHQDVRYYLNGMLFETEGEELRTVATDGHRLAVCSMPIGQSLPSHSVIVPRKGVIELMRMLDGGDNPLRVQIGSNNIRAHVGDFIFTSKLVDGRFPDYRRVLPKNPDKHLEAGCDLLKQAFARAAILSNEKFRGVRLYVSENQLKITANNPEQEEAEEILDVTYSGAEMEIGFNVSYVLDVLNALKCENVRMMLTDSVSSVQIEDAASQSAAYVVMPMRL

Target: E. coli DNA sliding clamp β (E. coli) (UniProt P0A988)
Experiment: co-localization single-molecule spectroscopy (CoSMoS, TIRF); τ clamp loader complex carrying three Pol IIIcore (30 nM Pol IIIcore) with clamp on surface-held DNA; the row of Table 1 has 30 nM Pol IV as well

- lifetime on clamp-DNA: 14.8 s
Substance: τ-complex: τ clamp loader (τ3δ1δ'1) with three Pol IIIcore complexes (α, ε, θ), P06710 1-643; P28630 1-343; P28631 1-334; P10443 1-1160; P03007 1-243; P0ABS8 1-76
